In patent US20230255970A1, “COMPOSITIONS AND METHODS FOR TREATING PROLIFERATIVE DISEASES” (The Broad Institute, Inc., priority 2020, published 2023):

Tested on: PPARG
Assay: PPARG reporter gene assay (FABP4-NanoLuc, RT112/84 bladder cancer cell line)
Format: cell-based
Conditions: absence or presence of Rosiglitazone
Procedure: These NanoLuc gene cloned RT112/84 cells were plated in 384-well plates at ˜10,000 cells/well. Cells were dosed with indicated compounds in the absence or presence of EC50 of PPARG agonist, rosiglitazone, using an HP D300 digital dispenser. The following day nuclei were counted for normalization (IncuCyte S3, Essen Bioscience) and the reporter activity was evaluated using the NanoGlo Luciferase Assay System (Promega). Normalized data is reported as NanoGlo arbitrary light units divided by cell number. PPARG agonist, rosiglitazone, and inhibitor, T0070907, were obtained from Tocris and included as controls.

CC(C)(C)n1nc(-c2ccc(Cl)cc2)c2c(N)ncnc21 [BRD-K95785537, 1-(tert-butyl)-3-(4-chlorophenyl)-1H-pyrazolo[3,4-d]pyrimidin-4-amine]
PPARG reporter activity (listed as A11): active in the PPARG reporter assay | PPARG reporter activity (listed as PP2): reporter activation
